# Test results: PubChem BioAssay AID463111 (Johns Hopkins Ion Channel Center, 2010)
# The list shows a part of the results, in another mix than the full data. Some of these compounds have results that are not shown, active ones among them. The source made the active and inactive calls.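 The calls were made as follows: active = B-score of the integrated calcium signal more than 4 SD below the library mean, with starting fluorescence not abnormally high; inactive = the rest.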
# Experiment: enhancers of RGS4 function in calcium signaling – cell-based, HEK293 M3R inducible RGS4, calcium flux, primary screen (AID 463111);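 as to B-score: negative B-score means reduced calcium response which marks RGS4 activation or potentiation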
# Details: HEK293 M3R/inducible RGS4, carbachol calcium flux Fluo4, at 10 µM; active compounds read low
# Summary of the method: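 Reagent: ECmax carbachol challenge; Test system: M3R-expressing HEK293 line, RGS4 induced by doxycycline; Schedule: overnight RGS4 induction, 30 min dye load 37 °C, 20 min compound RT; Detection: calcium dye Fluo4 fluorescence; Read-out: Agonist-evoked peak-minus-minimum fluorescence over baseline, integrated ratio, B score.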
Structure (SMILES),outcome,B-score
COc1ccc(C(=O)NCC2(N(C)C)CCCCC2)cc1,inactive,
Cc1cc(C(=O)NCC2(N3CCCCC3)CCCCC2)ccc1[N+](=O)[O-],inactive,
CCN1CCCC(OC(=O)C2(O)c3ccccc3C=Cc3ccccc32)C1 (centres undefined),inactive,
O=C(NCC1(N2CCCCC2)CCCCC1)c1cccc(Br)c1,inactive,
C=CCN1CCN(CCOC(=O)C(O)(c2ccccc2)c2ccccc2)CC1,,active: -10.3
O=C(NCC1(N2CCCCC2)CCCCC1)c1cc(F)c(F)cc1Cl,inactive,
Cc1ccccc1C(=O)NCC1(N2CCCCC2)CCCCC1,inactive,
CN(C)C1CCCC1OC(=O)C(O)(c1ccccc1)c1ccccc1 (centres undefined),,active: -8.16
CN(C)c1ccc(C(=O)NCC2(N(C)C)CCCCC2)cc1,inactive,
Cc1ccc(C(=O)NCC2(N3CCCCC3)CCCCC2)cc1,inactive,
CCN(CC)CC(C)C(C)OC(=O)C(O)(c1ccccc1)c1ccccc1 (centres undefined),,active: -9.15
COc1cc(SC)ccc1C(=O)NCC1(N(C)C)CCCCC1,inactive,
CC(C)N1C(=O)CC2(CCN(CCOC(=O)C(O)(c3ccccc3)c3ccccc3)CC2)C1=O,inactive,
CN1[C@@H]2CC[C@H]1CC(OC(=O)C(O)(c1ccccc1)c1ccccc1)C2 (some centres undefined),,active: -7.31
O=C(NCC1(N2CCCCC2)CCCCC1)c1cc([N+](=O)[O-])ccc1Cl,inactive,
CC(C)Oc1ccc(C(=O)NCC2(N(C)C)CCCCC2)cc1,inactive,
CN(C)c1cccc(C(=O)NCC2(N(C)C)CCCCC2)c1,inactive,
COc1ccc(Br)c(C(=O)NCC2(N3CCCCC3)CCCCC2)c1,inactive,
O=C(OC1CN2CCC1CC2)C(CO)(c1ccccc1)c1ccccc1 (centres undefined),,active: -7.67
O=C(NCC1(N2CCCCC2)CCCCC1)c1cccc(Cl)c1,inactive,
COc1cccc(C(=O)NCC2(N3CCCCC3)CCCCC2)c1,inactive,
COc1ccc(Cl)cc1C(=O)NCC1(N(C)C)CCCCC1,inactive,
COc1cc(C(=O)NCC2(N(C)C)CCCCC2)c([N+](=O)[O-])cc1OC,inactive,
CN(C)C1(CNC(=O)c2ccc(Br)cc2)CCCCC1,inactive,
